Literature values in patent publication US20220160704A2, “COMPOSITIONS FOR OPIATE AND OPIOID PREVENTION AND REVERSAL, AND METHODS OF THEIR USE” (Torralva Medical Therapeutics LLC, priority 2018, published 2022).
Only a part of the results on these compounds is given; other tests are left out.

Conditions: cited from earlier work

In the case of `CCC(=O)N(c1ccccc1)C1CCN(CCc2ccccc2)CC1`, the pKa is listed as 8.4.
